This passage reports Kd results from PMC3254707 (Biochemistry, 2011).

The Kd is the free concentration of one partner at which half of the binding sites on the other are occupied at equilibrium, for simple one-to-one binding. A high value points to lower affinity.

For the experiment, the target named is T1, PutA (proline utilization A) (Escherichia coli, UniProt P09546).
T1 sequence (P09546 1-1320): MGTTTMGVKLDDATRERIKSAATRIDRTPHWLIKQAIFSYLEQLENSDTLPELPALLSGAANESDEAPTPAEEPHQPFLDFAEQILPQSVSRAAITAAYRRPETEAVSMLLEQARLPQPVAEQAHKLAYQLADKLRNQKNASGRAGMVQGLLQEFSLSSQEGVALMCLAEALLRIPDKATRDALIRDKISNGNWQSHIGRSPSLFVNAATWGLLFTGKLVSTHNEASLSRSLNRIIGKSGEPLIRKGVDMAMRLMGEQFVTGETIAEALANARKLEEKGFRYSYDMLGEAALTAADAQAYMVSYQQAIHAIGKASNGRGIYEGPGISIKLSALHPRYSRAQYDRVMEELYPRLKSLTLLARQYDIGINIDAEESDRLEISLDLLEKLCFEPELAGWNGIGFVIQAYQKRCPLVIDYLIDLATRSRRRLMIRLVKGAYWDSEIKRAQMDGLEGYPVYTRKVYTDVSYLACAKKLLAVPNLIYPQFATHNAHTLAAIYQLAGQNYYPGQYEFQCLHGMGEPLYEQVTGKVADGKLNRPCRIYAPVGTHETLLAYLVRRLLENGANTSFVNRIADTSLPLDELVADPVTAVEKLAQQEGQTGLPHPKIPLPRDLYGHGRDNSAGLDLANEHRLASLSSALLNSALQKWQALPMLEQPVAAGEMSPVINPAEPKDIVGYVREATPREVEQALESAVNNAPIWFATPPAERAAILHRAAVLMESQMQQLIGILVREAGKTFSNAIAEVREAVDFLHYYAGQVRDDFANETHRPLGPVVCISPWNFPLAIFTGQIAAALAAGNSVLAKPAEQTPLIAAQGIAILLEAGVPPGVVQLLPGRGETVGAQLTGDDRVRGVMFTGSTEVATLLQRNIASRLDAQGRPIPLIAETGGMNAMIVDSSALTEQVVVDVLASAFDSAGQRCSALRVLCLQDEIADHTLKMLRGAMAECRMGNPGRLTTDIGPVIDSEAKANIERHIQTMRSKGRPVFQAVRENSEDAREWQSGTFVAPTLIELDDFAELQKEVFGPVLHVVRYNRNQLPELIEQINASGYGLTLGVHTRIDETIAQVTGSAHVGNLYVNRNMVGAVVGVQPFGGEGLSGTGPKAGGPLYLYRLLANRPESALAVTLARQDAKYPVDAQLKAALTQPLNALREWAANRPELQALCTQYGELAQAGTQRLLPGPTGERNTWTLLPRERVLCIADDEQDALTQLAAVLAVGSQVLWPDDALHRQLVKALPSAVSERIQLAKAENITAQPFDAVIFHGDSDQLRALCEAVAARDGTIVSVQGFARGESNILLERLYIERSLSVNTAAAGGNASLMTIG
Description: anaerobic stopped-flow, A476 of FAD, koff/kon. It counts as binding.

Consider `O=C(O)[C@@H]1CCCO1` [THFA, L-tetrahydro-2-furoic acid], for which the dissociation constant (Kd) came out at 13.5 mM.
